# Data as given in patent US20240368115A1, “REGULATOR CONTAINING TRICYCLIC DERIVATIVE, PREPARATION METHOD THEREFOR AND APPLICATION THEREOF” (SHUJING BIOPHARMA CO., LTD, priority 2021, published 2024).
# By UniProt entry, the sequences of proteins in these tests, tags left out. Where a name states a change or a piece, a line headed by the entry shows the natural chain unless it says otherwise. Residues count along the entry.
# UniProt P14416, whole entry: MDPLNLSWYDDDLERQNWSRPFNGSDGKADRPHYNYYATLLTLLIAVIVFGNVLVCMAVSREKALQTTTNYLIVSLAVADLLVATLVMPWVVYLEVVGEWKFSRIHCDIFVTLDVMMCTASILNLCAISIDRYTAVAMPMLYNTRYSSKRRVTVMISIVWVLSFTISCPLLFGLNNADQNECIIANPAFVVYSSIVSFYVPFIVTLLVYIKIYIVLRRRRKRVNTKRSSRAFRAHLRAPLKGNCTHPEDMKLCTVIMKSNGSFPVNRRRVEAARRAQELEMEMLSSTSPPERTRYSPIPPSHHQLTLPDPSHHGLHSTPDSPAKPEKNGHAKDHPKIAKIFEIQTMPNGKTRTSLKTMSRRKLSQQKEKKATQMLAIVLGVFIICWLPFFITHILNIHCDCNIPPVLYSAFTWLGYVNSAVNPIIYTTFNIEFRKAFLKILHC
# UniProt P14416, 1-414 isoform 2: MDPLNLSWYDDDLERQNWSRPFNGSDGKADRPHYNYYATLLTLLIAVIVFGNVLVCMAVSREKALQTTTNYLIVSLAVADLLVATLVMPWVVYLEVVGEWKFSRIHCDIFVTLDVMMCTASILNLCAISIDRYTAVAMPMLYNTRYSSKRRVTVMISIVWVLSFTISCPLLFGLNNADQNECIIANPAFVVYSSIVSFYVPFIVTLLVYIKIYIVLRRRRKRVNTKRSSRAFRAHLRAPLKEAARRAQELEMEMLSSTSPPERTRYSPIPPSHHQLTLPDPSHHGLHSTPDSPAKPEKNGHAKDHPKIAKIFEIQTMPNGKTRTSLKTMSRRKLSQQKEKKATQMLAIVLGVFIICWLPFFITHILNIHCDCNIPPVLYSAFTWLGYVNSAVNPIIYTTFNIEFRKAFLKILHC
# UniProt P08908, whole entry: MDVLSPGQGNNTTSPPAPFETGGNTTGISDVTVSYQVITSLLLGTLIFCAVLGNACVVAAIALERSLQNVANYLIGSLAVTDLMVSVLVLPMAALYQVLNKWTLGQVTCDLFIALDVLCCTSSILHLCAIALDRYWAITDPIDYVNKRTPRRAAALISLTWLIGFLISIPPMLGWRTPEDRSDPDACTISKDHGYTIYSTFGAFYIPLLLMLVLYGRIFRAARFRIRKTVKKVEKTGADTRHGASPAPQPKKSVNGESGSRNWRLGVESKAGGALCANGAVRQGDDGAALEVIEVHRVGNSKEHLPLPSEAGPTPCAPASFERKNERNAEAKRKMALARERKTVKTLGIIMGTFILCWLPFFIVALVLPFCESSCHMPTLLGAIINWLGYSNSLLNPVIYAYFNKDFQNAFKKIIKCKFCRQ
# UniProt P28223, whole entry: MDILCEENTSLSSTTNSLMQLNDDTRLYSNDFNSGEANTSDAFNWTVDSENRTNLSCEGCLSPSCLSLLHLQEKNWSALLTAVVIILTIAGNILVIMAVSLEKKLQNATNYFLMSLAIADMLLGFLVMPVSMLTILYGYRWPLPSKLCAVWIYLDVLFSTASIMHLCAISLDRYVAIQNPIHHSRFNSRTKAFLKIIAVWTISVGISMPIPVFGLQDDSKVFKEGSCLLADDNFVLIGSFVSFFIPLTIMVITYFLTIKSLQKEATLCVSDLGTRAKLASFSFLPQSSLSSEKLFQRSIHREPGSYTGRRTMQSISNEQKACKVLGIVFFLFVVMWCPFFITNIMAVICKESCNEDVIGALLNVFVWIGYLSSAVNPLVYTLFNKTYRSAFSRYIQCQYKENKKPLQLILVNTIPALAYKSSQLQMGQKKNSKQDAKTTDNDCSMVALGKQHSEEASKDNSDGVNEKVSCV
# pEC50, pIC50: −log10 of the molar value.
# Legend:
# [1] = Pharmacokinetic test in mice; conditions: male ICR mice, oral intragastric, single dose 5 mg/kg, plasma
# D2L receptor = D2L receptor (Homo sapiens, UniProt P14416); test: D2L receptor cAMP agonist test; assay type: cell-based; conditions: HEK293 cell strain stably expressing D2L receptor; for D2L Max Act %: positive control dopamine 1 μM; for pEC50: read-out: D2L EC50, cAMP, forskolin 0.5 μM
# D2S receptor = D2S receptor (Homo sapiens, UniProt P14416); test: D2S receptor cAMP agonist test; assay type: cell-based; conditions: HEK293 cell strain stably expressing D2S receptor; for D2S Max Act %: positive control dopamine 1×10^−7 M; for pEC50: read-out: D2S EC50, cAMP, forskolin 5×10^−7 M
# 5-HT1A receptor = 5-HT1A receptor (Homo sapiens, UniProt P08908); test: 5-HT1A receptor cAMP agonist test; assay type: cell-based; conditions: HEK293 cell strain stably expressing 5-HT1A receptor; for 5-HT1A Max Act %: positive control serotonin 10^−6 M; for pEC50: read-out: 5-HT1A EC50, cAMP, forskolin 2.5×10^−7 M
# 5-HT2A receptor = 5-HT2A receptor (Homo sapiens, UniProt P28223); test: Calcium flux test for 5-HT2A receptor; assay type: cell-based; conditions: CHO cell strain stably expressing 5-HT2A receptor; for 5-HT2A Max Inh %: positive control ketanserin 10^−7 M; for pIC50: read-out: 5-HT2A IC50, calcium flux, antagonism of serotonin
AUC(0-inf) [1] [ng·h/mL],Cmax [1] [ng/mL],t1/2 [1] [h],D2L Max Act % (D2L receptor) [%],pEC50 (D2L receptor),D2S Max Act % (D2S receptor) [%],5-HT1A Max Act % (5-HT1A receptor) [%],pEC50 (5-HT1A receptor),5-HT2A Max Inh % (5-HT2A receptor) [%],pIC50 (5-HT2A receptor),pEC50 (D2S receptor),Structure (SMILES)
6094.3,837.7,5.3,43.6,9.42,110.2,59.3,6.59,90.9,6.27,,"O=C1Nc2cc(OCCCCN3CCN(c4cccc5c4CC(F)(F)C5)CC3)ccc2C2CC12 (single isomer, unassigned) [Example 46-P2]"
13958.8,701.3,15.9,58.6,9.44,113.4,96.2,7.73,88.2,5.46,9.02,"O=C1Nc2cc(OCCCCN3CCN(c4cccc5c4OC(F)(F)O5)CC3)ccc2C2CC12 (single isomer, unassigned) [Example 41-P2]"
6287.5,1240.7,2.9,42.2,9.31,113.3,67.7,6.46,96.4,6.04,9.02,"O=C1Nc2cc(OCCCCN3CCN(c4cccc5c4CC(F)(F)C5)CC3)ccc2C2CC12 (single isomer, unassigned) [Example 46-P1]"
12950.5,1593.3,6.4,46.7,9.11,114.2,99.0,7.44,88.2,5.54,9.03,"O=C1Nc2cc(OCCCCN3CCN(c4cccc5c4OC(F)(F)O5)CC3)ccc2C2CC12 (single isomer, unassigned) [Example 41-P1]"
